Conditions: rat, in vivo, pH 7.4

Log PoS: 1.16
Structure (SMILES): COc1ccc2c(c1)c(CC(=O)O)c(C)n2C(=O)c1ccc(Cl)cc1 [Indomethacin]

— paper PMC11650849, “Brain endothelial permeability, transport, and flow assessed over 10 orders of magnitude using the in situ brain perfusion technique” (Fluids and Barriers of the CNS, 2024)
